# Nrf2 ARE act: Nrf2 pathway activation; AREc32 ARE-luciferase reporter (MCF7-derived line), luminescence, 24 h; Potency, µM (titrated, usually from 46.1 µM), inactives show top-dose activation, most hits filed as activators; actives 0.31% (n = 410,000); AID 624171; also: potency is read from the fitted curve at half-maximal effect; % of control where 0% means no effect; nearly all actives have a fitted effect of over 65% in size
#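 Luminescent ARE reporter assay in AREc32_Fluc cells: overnight plating at 37 deg C, 24 hr compound incubation, Steady-Glo added, 30 min RT before reading.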
# miR-21 reporter: miR-21 reporter, rising signal; HeLa miR-21 FLuc reporter, luciferase, 48 h; Potency, µM (doses to about 38.3 µM), for inactives: at the highest dose reporter change, positive = more light; 340,000 tested, under 10 active; AID 2288; active = well fitted rising curve with a large enough effect; inconclusive = small, poorly fitted or top-dose-only effect; inactive = no such curve, though single readings can be large or run the other way;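 further: % of control where 0% means no effect; miR-21 action dims this reporter so a rising signal means less miR-21 action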
#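 HeLa cells endogenously expressing miR-21, stably carrying CMV-driven firefly luciferase with a downstream miR-21 binding site, 2000 cells/well. Titrations up to approximately 40 uM, 48 hours; luciferase luminescence read.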
# Nrf2 inh: blocks Nrf2 signaling. actives 2.1% (n = 360,000). Potency, µM (series often up to 46 µM), without a hit: top-dose activity change, negative = inhibition, usual class: inhibitors. A549 ARE-Fluc reporter, luciferase luminescence, 18-24 h; also: potency is read from the fitted curve at half-maximal effect; % is scaled to controls: 0 for no effect and ±100 for the full control effect; nearly all actives have a fitted effect of over 60% in size
#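 Two sequential reads on A549 ARE_Fluc cells exposed to compound for 18-24 h: a CellTiter-Fluor fluorescence read for viability, then a luciferase luminescence read for Nrf2/ARE activity.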
# Mito fusion act: inhibitors of mitochondrial division or activators of mitochondrial fusion; S. cerevisiae fusion-defective mutant growth rescue, CellTiterGlo 48 h; Potency, µM (highest dose often 46.1 µM), for the others: at the top dose growth rescue (activation), hits mostly activators; actives 0.23% (n = 320,000); AID 485298; also: potency is read from the fitted curve at half-maximal effect; % of control where 0% means no effect; nearly all actives have a fitted effect of over 45% in size
#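 S. cerevisiae fusion-defective temperature-sensitive mutants (e.g. fzo1-1, mgm1-5) grown 48 h at 37C in YPEG (ethanol/glycerol non-fermentable) medium with 23 nl compound per well; growth rescue read as CellTiterGlo luminescence.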
# A549 tox: A549 cytotoxicity, counter-screen for Nrf2 inhibitors. A549 ARE-Fluc cells, CellTiter-Fluor viability, 18-24 h. Potency, µM (titrated, usually from 46 µM), for inactives: top-dose activity change, negative = cytotoxicity, actives largely listed as inhibitors. actives 0.16% (n = 390,000). AID 504648; also: potency is read from the fitted curve at half-maximal effect; % is scaled to controls: 0 for no effect and ±100 for the full control effect
#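 A549 ARE-Fluc cells in 5% FBS OPTI-MEM, 5000 cells/well, rested 2 h then exposed to compounds in concentration-response for 18-24 h at 37 °C. Viability by CellTiter-Fluor fluorescence (Ex 405/Em 525) after 30 min; luciferase luminescence (BugLite, 15 min, RT) read afterwards.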
# * hit, by the source's call; ? = inconclusive; . = no result given. Most compounds without a hit are left out; they make up all but 2.3% or so of the library. Unless noted, calls follow the shape of the dose curve; as a rule, active = well fitted curve in the direction sought with a large enough effect; inconclusive = small, poorly fitted or top-dose-only effect, or another doubt; inactive = no such curve, though single readings can be large; an effect the other way counts as inactive or inconclusive.
no. | canonical_smiles | Nrf2 ARE act | miR-21 reporter | Nrf2 inh
1 | CC(=O)N1c2c(cc(Br)cc2S(=O)(=O)N2CCN(c3ccccc3F)CC2)CC1C (stereo unspecified) | -1% | 20% | 23µM*
2 | CC(=O)N1c2ccc(S(=O)(=O)N3CCC(C(=O)Nc4cccc(Cl)c4)CC3)cc2CC1C (stereo unspecified) | -1% | 29% | 2.1µM*
3 | CC1Cc2cc(S(=O)(=O)N3CCN(c4ccccc4F)CC3)ccc2N1C(=O)C1CC1 (stereo unspecified) | -1% | 1% | 15µM*
4 | Cc1ccc(OCC(=O)Nc2cccc(-c3nc4ccccc4s3)c2)cc1 | 8% | -48% | ?
5 | N#Cc1nc(Nc2cc(F)cc(F)c2)c2ncn(CCCO)c2n1 | . | . | 14%
6 | O=C(COc1ccc(Cl)cc1)Nc1ccc2nc(SCC(=O)N3CCOCC3)sc2c1 | 1% | 6% | ?
7 | Cn1c(=O)oc2cc(S(=O)(=O)N3CCC(C(=O)N4CCN(c5cccc(Cl)c5)CC4)CC3)ccc21 | 0% | -9% | ?
8 | CC(=O)c1ccc(N2CCN(C(=O)C3CCN(S(=O)(=O)c4ccc5c(c4)CC(C)N5C(C)=O)CC3)CC2)cc1 (stereo unspecified) | 3% | 8% | 15µM*
9 | Cn1c(=O)oc2cc(S(=O)(=O)N3CCC(C(=O)N4CCN(c5ccc(Cl)cc5)CC4)CC3)ccc21 | 0% | 23% | 18µM*
10 | CCOc1ccc(CCNC(=O)C2CCCN(S(=O)(=O)N(C)c3ccc(F)cc3)C2)cc1 (stereo unspecified) | 0% | 22% | ?
11 | COc1ccc(C2=Nc3ccccc3OC2)cc1 | 11µM* | -46% | ?
12 | CCN1C/C(=C/c2ccc(N3CCOCC3)cc2)C(=O)/C(=C/c2ccc(N3CCOCC3)cc2)C1 | ? | ? | ?
13 | CN1C/C(=C\c2ccc(N3CCOCC3)cc2)C(=O)/C(=C/c2ccc(N3CCOCC3)cc2)C1 | 11µM* | 23% | 12%
14 | CCc1ccc(N=c2c([N+](=O)[O-])nn(-c3ccccc3)n2O)cc1 | 16% | -2% | -14%
15 | CCCN(CCC)Cc1c(C(=O)N/N=C/c2cccs2)nnn1-c1nonc1N | 7% | -2% | 4%

no. | Mito fusion act | A549 tox
1 | 29% | -7%
2 | 7% | -12%
3 | 9% | -8%
4 | . | -9%
5 | . | -5%
6 | . | -7%
7 | . | -1%
8 | 5% | -1%
9 | . | 3%
10 | . | 0%
11 | -1% | -5%
12 | -5% | ?
13 | -2% | -11%
14 | 18µM* | -18%
15 | 0% | 5%

# Record cards, as listed above. Screens in order: Nrf2 ARE act, miR-21 reporter, Nrf2 inh, Mito fusion act, A549 tox
# CN1C/C(=C\c2ccc(N3CCOCC3)cc2)C(=O)/C(=C/c2ccc(N3CCOCC3)cc2)C1 across the screens: 11µM*, 23%, 12%, -2%, -11%
# CCN1C/C(=C/c2ccc(N3CCOCC3)cc2)C(=O)/C(=C/c2ccc(N3CCOCC3)cc2)C1 across the screens: ?, ?, ?, -5%, ?
# CC(=O)c1ccc(N2CCN(C(=O)C3CCN(S(=O)(=O)c4ccc5c(c4)CC(C)N5C(C)=O)CC3)CC2)cc1 (stereo unspecified) across the screens: 3%, 8%, 15µM*, 5%, -1%

# (cont.)
no. | canonical_smiles | Nrf2 ARE act | miR-21 reporter | Nrf2 inh
16 | CCCc1c(C(=O)N/N=C/c2cccs2)nnn1-c1nonc1N | 8.9µM* | -12% | 15%
17 | CCCN(CCC)Cc1c(C(=O)N/N=C/c2ccc(Br)cc2)nnn1-c1nonc1N | -1% | -8% | 16µM*
18 | CCCN(CCC)Cc1c(C(=O)N/N=C/c2ccoc2)nnn1-c1nonc1N | -1% | -13% | 11%
19 | CN(C)Cc1c(C(=O)N/N=C/c2cccc(OCc3c(F)cccc3Cl)c2)nnn1-c1nonc1N | 0% | 2% | 3.7µM*
20 | O=S(=O)(c1cccc(C(F)(F)F)c1)N1CCN(c2nc(-c3ccccc3)nc3ccccc23)CC1 | . | . | ?
21 | O=[S+]([O-])(c1ccc2c(c1)OCCO2)N1CCN([S+](=O)([O-])c2c(F)cc(F)cc2Br)CC1 | . | . | 13%
22 | Cn1c2cc(Br)sc2c2cnn(Cc3ccccc3F)c(=O)c21 | . | . | 3%
23 | CC(=O)c1ccc(OCC(O)CN(C)CCOc2ccc(Br)cc2)cc1 (stereo unspecified) | 5% | 23% | 18µM*
24 | Cc1ccccc1NC(=O)c1c2c(nc3ccccc13)C(=O)N(C1CCCCC1)C2 | 6% | 1% | 27%
25 | COc1cc(OC)c(NC(=O)c2c3c(nc4ccccc24)C(=O)N(C2CCCCC2)C3)cc1Cl | -1% | -1% | 13µM*
26 | C=CCNC(=S)N/N=C(\C)c1ccccn1 | ? | ? | 0.58µM*
27 | COc1ccccc1N=Cc1c(C)c(C#N)c2[nH]c3ccccc3n2c1=O | 1% | -11% | -24%

no. | Mito fusion act | A549 tox
16 | 3% | 0%
17 | -11% | ?
18 | -3% | -1%
19 | -4% | 0%
20 | . | 2%
21 | . | -3%
22 | . | -3%
23 | -9% | -1%
24 | . | -3%
25 | . | -8%
26 | 1% | ?
27 | -4% | -17%
